In ChEMBL document CHEMBL5576157, “"Seasoning" antimalarial drugs' action: chloroquine bile salts as novel triple-stage antiplasmodial hits” (RSC Med Chem, 2024):
The source made the active and inactive calls. The calls are words filed in the database; no cut-off is given here.

The compounds below were run on Plasmodium falciparum (assay: Antimalarial activity against blood stage chloroquine-sensitive Plasmodium falciparum 3D7 expressing GFP infected in erythrocytes assessed as inhibition of parasite growth at 10 uM incubated for 72 hrs by flow cytometry analysis relative to control). Details: Erythrocyte.
Type: functional
Procedure, shortened: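 Unsynchronized P. falciparum 3D7-GFP culture (0,6% hematocrit, 0,5% parasitaemia) was exposed to 10 µM compound for 72 h at 37 °C and 5% CO2. Growth was read by flow cytometry of GFP (Fl-1, 488 nm excitation), counting 20,000–40,000 erythrocytes per well.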
With `C[C@H](CCC(=O)O)[C@H]1CC[C@H]2[C@@H]3CC[C@@H]4C[C@H](O)CC[C@]4(C)[C@H]3C[C@H](O)[C@]12C` the inhibition was “inactive”. For `C[C@H](CCC(=O)NCC(=O)O)[C@H]1CC[C@H]2[C@@H]3[C@H](O)C[C@@H]4C[C@H](O)CC[C@]4(C)[C@H]3C[C@H](O)[C@]12C`, the inhibition was “inactive”. With `C[C@H](CCC(=O)O)[C@H]1CC[C@H]2[C@@H]3[C@H](O)C[C@@H]4C[C@H](O)CC[C@]4(C)[C@H]3C[C@H](O)[C@]12C` the inhibition was “inactive”. For `C[C@H](CCC(=O)O)[C@H]1CC[C@H]2[C@@H]3CC[C@@H]4C[C@H](O)CC[C@]4(C)[C@H]3CC[C@]12C`, the inhibition was “inactive”.

These compounds were tested on Plasmodium berghei (assay: Antimalarial activity against Plasmodium berghei sporozoites expressing firefly luciferase infected in human Huh-7 cells assessed reduction in parasite growth at 10 uM preincubated for 1 hr followed by infection and measured after 48 hrs by luminescence analysis). Details: time 49.0 hrs.
Type: functional, organism-based
Procedure, shortened: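 Huh-7 hepatoma cells were grown in RPMI with 10% FCS, non-essential amino acids, glutamine, penicillin/streptomycin and 10 mM HEPES pH 7, at 37 °C and 5% CO2. Cells were seeded at 1.2×10⁴/well the day before. Compound medium was added ~1 h before infection with firefly luciferase P. berghei sporozoites freshly dissected from mosquito salivary glands, then spun at 1700 g for 5 min. Parasite load was read at 48 h by lysate luminescence after luciferin addition.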
In the case of `COc1cc(NC(C)CCCN)c2ncccc2c1.C[C@H](CCC(=O)NCC(=O)O)[C@H]1CC[C@H]2[C@@H]3[C@H](O)C[C@@H]4C[C@H](O)CC[C@]4(C)[C@H]3C[C@H](O)[C@]12C`, the Activity was “Active”. For `CCN(CC)CCCC(C)Nc1ccnc2cc(Cl)ccc12.C[C@H](CCC(=O)O)[C@H]1CC[C@H]2[C@@H]3[C@H](O)C[C@@H]4C[C@H](O)CC[C@]4(C)[C@H]3C[C@H](O)[C@]12C`, the Activity was “Active”. For `COc1cc(NC(C)CCCN)c2ncccc2c1.C[C@H](CCC(=O)O)[C@H]1CC[C@H]2[C@@H]3CC[C@@H]4C[C@H](O)CC[C@]4(C)[C@H]3C[C@H](O)[C@]12C`, the Activity was “Active”. With `CCN(CC)CCCC(C)Nc1ccnc2cc(Cl)ccc12.C[C@H](CCC(=O)NCC(=O)O)[C@H]1CC[C@H]2[C@@H]3[C@H](O)C[C@@H]4C[C@H](O)CC[C@]4(C)[C@H]3C[C@H](O)[C@]12C` the Activity was “Active”. With `CCN(CC)CCCC(C)Nc1ccnc2cc(Cl)ccc12.C[C@H](CCC(=O)O)[C@H]1CC[C@H]2[C@@H]3CC[C@@H]4C[C@H](O)CC[C@]4(C)[C@H]3C[C@H](O)[C@]12C` the Activity was “Active”. `CCN(CC)CCCC(C)Nc1ccnc2cc(Cl)ccc12.C[C@H](CCC(=O)O)[C@H]1CC[C@H]2[C@@H]3[C@H](O)C[C@@H]4C[C@H](O)CC[C@]4(C)[C@H]3CC[C@]12C` was tested, and the Activity was “Active”. In the case of `COc1cc(NC(C)CCCN)c2ncccc2c1.C[C@H](CCC(=O)O)[C@H]1CC[C@H]2[C@@H]3[C@H](O)C[C@@H]4C[C@H](O)CC[C@]4(C)[C@H]3C[C@H](O)[C@]12C`, the Activity was “Active”. In the case of `COc1cc(NC(C)CCCN)c2ncccc2c1.C[C@H](CCC(=O)O)[C@H]1CC[C@H]2[C@@H]3[C@H](O)C[C@@H]4C[C@H](O)CC[C@]4(C)[C@H]3CC[C@]12C`, the Activity was “Active”.
